Data as given in patent US8058242B2, “Chimeric proteins with natriuretic activity” (The University of Queensland, priority 2004, dated 2011).

Molecular target: T1, Natriuretic Peptide Receptor-A (NPR-A) signaling in MDCK cells (Canis lupus familiaris, UniProt A0A8I3MHU3)
T1 sequence (A0A8I3MHU3 32-1060): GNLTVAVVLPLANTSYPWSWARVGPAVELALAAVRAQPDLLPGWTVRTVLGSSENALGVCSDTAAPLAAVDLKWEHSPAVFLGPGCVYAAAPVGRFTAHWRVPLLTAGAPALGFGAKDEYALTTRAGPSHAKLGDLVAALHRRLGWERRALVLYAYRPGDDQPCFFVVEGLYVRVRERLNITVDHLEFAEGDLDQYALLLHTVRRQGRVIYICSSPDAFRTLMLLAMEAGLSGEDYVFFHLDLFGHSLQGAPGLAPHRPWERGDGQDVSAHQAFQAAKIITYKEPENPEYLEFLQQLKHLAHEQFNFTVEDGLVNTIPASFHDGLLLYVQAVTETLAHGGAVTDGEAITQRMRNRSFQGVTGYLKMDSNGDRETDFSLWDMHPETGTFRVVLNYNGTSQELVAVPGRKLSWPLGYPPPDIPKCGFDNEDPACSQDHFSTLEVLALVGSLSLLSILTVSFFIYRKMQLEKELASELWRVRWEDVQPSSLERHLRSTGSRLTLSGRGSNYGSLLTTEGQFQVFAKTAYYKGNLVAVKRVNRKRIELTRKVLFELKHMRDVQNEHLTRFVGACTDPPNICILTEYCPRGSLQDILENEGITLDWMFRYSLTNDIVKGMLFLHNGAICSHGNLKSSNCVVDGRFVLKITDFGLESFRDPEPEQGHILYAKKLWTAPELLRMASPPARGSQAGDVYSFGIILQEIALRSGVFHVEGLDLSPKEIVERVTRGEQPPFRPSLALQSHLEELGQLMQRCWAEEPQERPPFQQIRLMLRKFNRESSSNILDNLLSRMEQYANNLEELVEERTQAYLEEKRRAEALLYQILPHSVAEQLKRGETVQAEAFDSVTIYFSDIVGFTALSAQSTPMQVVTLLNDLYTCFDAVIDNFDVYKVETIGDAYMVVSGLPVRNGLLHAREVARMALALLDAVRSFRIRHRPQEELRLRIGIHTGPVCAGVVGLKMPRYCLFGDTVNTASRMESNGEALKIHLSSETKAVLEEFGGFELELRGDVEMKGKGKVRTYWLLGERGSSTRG
Type: cell-based, canine
Settings: stimulation of cGMP accumulation in MDCK cells

CC[C@H](C)[C@@H]1NC(=O)[C@H](CCCNC(=N)N)NC(=O)[C@H](CC(=O)O)NC(=O)[C@H]([C@@H](C)CC)NC(=O)[C@H](CCCNC(=N)N)NC(=O)CNC(=O)CNC(=O)[C@H](Cc2ccccc2)NC(=O)[C@@H](NC(=O)[C@H](CO)NC(=O)[C@H](CO)NC(=O)[C@H](CCCNC(=N)N)NC(=O)[C@H](CCCNC(=N)N)NC(=O)[C@H](CC(C)C)NC(=O)[C@@H](N)CO)CSSC[C@@H](C(=O)N[C@@H](CC(N)=O)C(=O)N[C@@H](CO)C(=O)N[C@@H](Cc2ccccc2)C(=O)N[C@@H](CCCNC(=N)N)C(=O)N[C@@H](Cc2ccc(O)cc2)C(=O)O)NC(=O)CNC(=O)[C@H](CC(C)C)NC(=O)CNC(=O)[C@H](CO)NC(=O)[C@H](CCC(N)=O)NC(=O)[C@H](C)NC(=O)CNC1=O [rANP, reference compound]
−Log10 EC50 (pEC50) ± Standard Error: 8.761 ± 0.2936
EC50 (read-out: EC50 (M) ± Standard Error): 8.47e-09 M
